In ChEMBL document CHEMBL1131688, “Solution-phase and solid-phase synthesis of novel transition state inhibitors of coagulation enzymes incorporating a piperidinyl moiety” (Bioorg Med Chem Lett, 1999):

Biological target: Prothrombin (Homo sapiens, UniProt P00734)
Assay: Inhibitory activity against thrombin

- IC50: 550 nM
SMILES: CC1CNc2c(cccc2S(=O)(=O)N[C@@H](CCCNC(=N)N)C(=O)N2CCC(C)C[C@@H]2C(=O)O)C1 (single isomer, unassigned) [ARGATROBAN]
